The results in this text go back to US10934439B2, “Additives for coating compositions and related methods” (Massachusetts Institute of Technology, priority 2017, dated 2021).

The data set in a line: Solubility / dissolution testing. The note with it: room temperature.

“magnesium acetate thiodipropionate [MgAcTDPA]”: the aqueous solubility entry is recorded as “unlimited aqueous solubility”.
